Data reported in PubChem BioAssay AID592 (National Center for Advancing Translational Sciences (NCATS), 2007).
Some of the results follow. Active and inactive are the calls of the source. How the calls were made is not given here.

assay: qHTS Assay for Spectroscopic Profiling in A647 Spectral Region; details: Compound fluorescence, A647 channel (570/671 nm), Tris buffer; active compounds read high
Description: NIH Molecular Libraries Screening Centers Network [MLSCN] NIH Chemical Genomics Center [NCGC] […] Occasionally, the artifactual effect may originate from the compounds own spectral or other biophysical properties which generally tend to track its assay concentration. Pre-screening/profiling the library with respect to the compounds spectral properties should help one exclude false positives early on. While the most informative fluorescent profiling data set is obtained by performing a full excitation and emission scan of each well by using a monochromator-based plate reader, such an approach is practical only on a very limited scale as scanning each well requires long time. An alternative approach, applied here, is to perform plate reader scans using selected excitation and emission wavelength pairs to generate a multidimensional relational database that correlates compound concentration and the respective relative fluorescence intensity at a given wavelength set. A standard curve of Alexa 647 (A647) present on each plate as six-point concentration series, was used to compute a normalized fluorescence response, termed dye-equivalent concentration, for each compound at each concentration.
NCGC Assay Protocol Summary: Buffer: 100 mM Tris buffer, pH 8.0 Dye standard plate: The wells in columns 1 through 4 of a Kalypsys polypropylene 1536-well compound plate were filled with standard solutions of fluorophore corresponding to the spectral region of interest. Solutions of A647 were placed in the following wells: AC1, AD1: 3 mM, AC2, AD2: 300 uM, AC3, AD3: 30 uM, AC4, AD4: zero (DMSO), AE1, AF1: 3 uM, AE2, AF2: 900 nM, AE3, AF3: 300 nM, AE4, AF4: zero (DMSO). Assay Steps: Six uL of buffer were dispensed to 1536-well Greiner black plates. Compounds and dye standards (23 nL) were transferred via Kalypsys PinTool. The plates were incubated for 15 min at room temperature, and then read on ViewLux (Perkin-Elmer) High-throughput CCD imager using 570 nm and 671 nm excitation and emission filter set. Keywords: NIH Roadmap, MLSCN, MLI, MLSMR, qHTS, NCGC, A647, A-647, Fluorescent Profiling.

SMILES	max dye-equivalent concentration
CN(C(=O)Cc1ccccc1)[C@@H]1CC[C@@]2(CCCO2)C[C@H]1N1CCCC1	inactive: 2.7 nM
C/C1=C2N=C(/C=C3N=C(/C(C)=C4\[N-][C@@](C)([C@H]5N=C1[C@@](C)(CCC(=O)NC[C@H](C)OP(=O)([O-])O[C@@H]1[C@H](O)[C@H](n6cnc7cc(C)c(C)cc76)O[C@@H]1CO)[C@@H]5CC(N)=O)[C@](C)(CC(N)=O)[C@H]4CCC(N)=O)[C@@](C)(CC(N)=O)[C@@H]\3CCC(N)=O)C(C)(C)[C@@H]/2CCC(N)=O.[C-]#N.[Co+3]	inactive: 4 nM
N#[O+].[C-]#N.[C-]#N.[C-]#N.[C-]#N.[C-]#N.[Fe+2].[Na+].[Na+]	inactive: 1 nM
CCN(CC)CC(O)COC(=O)C(O)(c1ccccc1)C1CCCCC1 (centres undefined)	inactive: 72 nM
CCc1nc2c(n1)c1c(non1O)c1c2no[n+]1[O-]	inactive: 9.6 nM
COc1ccccc1OP(C)(=O)Nc1c(C)n(C)n(-c2ccccc2)c1=O (centres undefined)	inactive: 3.6 nM
O=C(CO)Nc1ccc([As](=O)(O)O)cc1	inactive: 7.9 nM
O=[N+]([O-])c1ccc(C[As](=O)(O)O)cc1	inactive: 48 nM
NCC[C@@H](N)CSP(=O)(O)O	inactive: 38 nM
COc1ccccc1OP(C)(=O)Nc1ccc(C)c(C)c1 (centres undefined)	inactive: 3.4 nM
[N-]=[N+]=NCC(O)CN=[N+]=[N-] (centres undefined)	inactive: 29 nM
Cc1nc2ccc3ccccc3c2o1.O=[N+]([O-])c1cc([N+](=O)[O-])c(O)c([N+](=O)[O-])c1	inactive: 2.2 nM
C(Cc1nn[nH]n1)c1nn[nH]n1	inactive: 24 nM
COC(=O)c1cc2c(s1)N=C(c1ccccc1)N(C)P2(=O)N1CCOCC1 (centres undefined)	inactive: 17 nM
O=P1(Nc2nc3ccc(Cl)cc3s2)COc2ccccc2O1 (centres undefined)	inactive: 37 nM
CP(=O)(Nc1ccccc1F)Oc1ccccc1 (centres undefined)	inactive: 1 nM
O=P(Nc1nccs1)(c1ccccc1)c1ccccc1	inactive: 23 nM
c1nnnn1CCn1cnnn1	inactive: 1 nM
CCOP(C)(=S)SCC(=O)NC(C)(CC)C(=O)O (centres undefined)	inactive: 36 nM
CN1CCC[C@H](OC(=O)C(c2ccccc2)c2ccccc2)C1	inactive: 57 nM
NNC(NN)NN.n1nc(-c2nn[nH]n2)n[nH]1	inactive: 11 nM
Cc1ccccc1NP(C)(=O)Nc1ccccc1C	inactive: 41 nM
C[C@@H](O)COc1ccc([As](=O)(O)O)cc1N	inactive: 4.3 nM
[N-]=[N+]=Nc1ccc([As](=O)(O)O)cc1	inactive: 3.6 nM
CN(C)CCOC(=O)C(O)(c1ccccc1)C1CCCCC1 (centres undefined)	inactive: 1 nM
O=C(OC1CN2CCC1CC2)c1cccc(Cl)c1 (centres undefined)	inactive: 6.1 nM
Cc1nn(-c2ccccc2)c2c1P(=O)(N1CCOCC1)N(C)C(c1ccccc1)=N2 (centres undefined)	inactive: 21 nM

SMILES	max dye-equivalent concentration
O=P1(Nc2ncccn2)COc2ccccc2OC1	inactive: 6.8 nM
O=P1(Nc2ccc(Br)cn2)COc2ccccc2OC1	inactive: 30 nM
Cc1ccc(OCC(=O)OC2CN3CCC2CC3)cc1 (centres undefined)	inactive: 5 nM
O=P1(Nc2ccccn2)COc2ccccc2OC1	inactive: 30 nM
CN(CCCl)Cc1cc(Cl)c(NC2=NCCN2)c(Cl)c1	inactive: 1 nM
Clc1n[nH]nc1-c1nn[nH][15n]1	inactive: 6.6 nM
Cc1nc2ccc3ccccc3c2s1.O=[N+]([O-])c1cc([N+](=O)[O-])c(O)c([N+](=O)[O-])c1	inactive: 15 nM
Cc1cccc(OCC(=O)OC2CN3CCC2CC3)c1 (centres undefined)	inactive: 98 nM
O=C(CC(=O)c1ccccc1)O[C@H]1CN2CCC1CC2	inactive: 1 nM
NS(=O)(=O)Cc1ccc([As](=O)(O)O)cc1	inactive: 1 nM
CN(C(=O)Cc1ccc(Cl)c(Cl)c1)[C@@H]1CC[C@@]2(CCCO2)C[C@H]1N1CCCC1	inactive: 1 nM
CCOP1(=S)c2c(C)nn(CCC#N)c2N=C(c2ccccc2F)N1C (centres undefined)	inactive: 10 nM
O=P(Nc1nccs1)(c1ccccc1)c1nc2ccccc2s1 (centres undefined)	inactive: 51 nM
O=[As](O)(O)c1ccc([As](=O)(O)O)cc1	inactive: 6 nM
NC(=O)Nc1ccc([As](=O)(O)O)cc1	inactive: 5.8 nM
CCOP1(=S)c2c(C)nn(CCC#N)c2N=C(c2ccc(F)cc2)N1C (centres undefined)	inactive: 53 nM
O=[As]c1ccc(S(=O)(=O)NCCO)cc1 (centres undefined)	inactive: 1 nM
[N-]=[N+]=NCC(N)=O	inactive: 48 nM
COc1ccccc1OP(C)(=O)Nc1ccc(C)cc1 (centres undefined)	inactive: 9.8 nM
O=C(OC1CN2CCC1CC2)C12CC3CC(CC(C3)C1)C2 (centres undefined)	inactive: 42 nM
NC(=O)Nc1cc([As](=O)(O)O)cc(I)c1O	inactive: 50 nM
COP1(=S)c2c(C)nn(CCC#N)c2N=C(c2ccc(F)cc2)N1C (centres undefined)	inactive: 26 nM
O=C(O)[C@@H](O)c1ccc([As](=O)(O)O)cc1	inactive: 9.8 nM
CP(=O)(NC(=O)Nc1ccccc1)Oc1ccccc1 (centres undefined)	inactive: 1 nM
O=C(COc1ccccc1)OC1CN2CCC1CC2 (centres undefined)	inactive: 2.9 nM
N1=C(c2nnc(-c3nn[nH]n3)nn2)NNN1	inactive: 1 nM
CP(=S)(Nn1cnnc1)Oc1ccccc1 (centres undefined)	inactive: 4.1 nM
